# The list is not random: actives were taken first. Their share in the collection is about 2.1%.
# TSG101-PTAP inh: blocks PTAP/TSG101 interaction to inhibit HIV-1 budding; Q99816; Fluorescence polarization, FITC-PTAP peptide / Tsg101 binding; Potency, µM (series often up to 115 µM), for inactives: top-dose activity change, negative = inhibition, most hits filed as inhibitors; 340,000 tested, under 10 active; AID 493005; active = well fitted inhibition curve with a large enough effect in the main read-out, with a control signal flat, not every such curve was filed as active; inconclusive = small, poorly fitted or top-dose-only effect, or effect the other way, or a change in a side signal; inactive = no such curve, though single readings can be large or run the other way; note: potency is the fitted concentration of half-maximal effect; % of control where 0% means no effect
#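 Fluorescence anisotropy tracks displacement of a FITC-tagged PTAP peptide (50 nM) from the Tsg101 binding domain (10 uM), following a 20 min room-temperature incubation at pH 7.5.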
# GRP78 ERSR act: inducers of ER stress response in human glioma cells; Potency, µM, for the others: at the top dose activation, hits mostly activators; U87-MG GRP78 promoter luciferase reporter, 16 h; 420,000 tested, 0.02% active; AID 602332; note: potency is the fitted concentration of half-maximal effect; series mostly up to about 76 µM; % of control where 0% means no effect; nearly all actives have a fitted effect of over 35% in size
#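 Stably transfected U87-MG human glioma cells carrying a GRP78-based luminescent sensor were seeded at 1000 cells/well, pin-dosed with compounds and incubated 16 h. Luciferase reagent was then added, and end-point luminescence was read after 10 min at room temperature.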
# miR-21 reporter: raises the signal of a miR-21 reporter; Potency, µM (doses to about 38.3 µM), inactives show top-dose reporter change, positive = more light; HeLa miR-21 FLuc reporter, luciferase, 48 h; AID 2288; 340,000 tested, under 10 active; active = well fitted rising curve with a large enough effect; inconclusive = small, poorly fitted or top-dose-only effect; inactive = no such curve, though single readings can be large or run the other way;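 further: % of control where 0% means no effect; miR-21 action dims this reporter so a rising signal means less miR-21 action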
#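 HeLa cells endogenously expressing miR-21, stably carrying CMV-driven firefly luciferase with a downstream miR-21 binding site, 2000 cells/well. Titrations up to approximately 40 uM, 48 hours; luciferase luminescence read.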
# A549 tox: kills or reduces viability of A549 cells in Nrf2 counter-screen; A549 ARE-Fluc cells, CellTiter-Fluor viability, 18-24 h; Potency, µM (doses to about 46 µM), for the others: at the top dose activity change, negative = cytotoxicity, actives largely listed as inhibitors; 390,000 tested, 0.16% active; note: potency is the fitted concentration of half-maximal effect; % is set by controls: 0 for no effect and ±100 for the full control effect
#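 A549 ARE_Fluc cells in 5% FBS OPTI-MEM were exposed to compounds in concentration-response for 18-24 h at 37 deg C. Viability was read by CellTiter-Fluor fluorescence (Ex 405/Em 525) after 30 min, before the luciferase read.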
# Nrf2 ARE act: activators of Nrf2 (ARE) signaling; AREc32 ARE-luciferase reporter (MCF7-derived line), luminescence, 24 h; Potency, µM (top dose mostly 46.1 µM), without a hit: at the top dose activation, most hits filed as activators; 410,000 tested, 0.31% active; AID 624171; note: potency is the fitted concentration of half-maximal effect; % of control where 0% means no effect; nearly all actives have a fitted effect of over 65% in size
#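 Cells of the AREc32 ARE-luciferase line are plated in OPTI-MEM containing 5% FBS and left overnight at 37 deg C. Compounds are pinned in, incubation continues 24 hr, and firefly luciferase signal is then measured.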
# Nrf2 inh: Nrf2 pathway inhibition; A549 ARE-Fluc reporter, luciferase luminescence, 18-24 h; Potency, µM (highest dose often 46 µM), for the others: top-dose activity change, negative = inhibition, usual class: inhibitors; 360,000 tested, 2.1% active; note: potency is the fitted concentration of half-maximal effect; % is set by controls: 0 for no effect and ±100 for the full control effect; nearly all actives have a fitted effect of over 60% in size
#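 Two sequential reads on A549 ARE_Fluc cells exposed to compound for 18-24 h: a CellTiter-Fluor fluorescence read for viability, then a luciferase luminescence read for Nrf2/ARE activity.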
# An asterisk follows results filed as active; ? = inconclusive; . = not tested or not shown. Unless noted, calls come from the whole dose curve; as a rule, active = well fitted curve in the direction sought with a large enough effect; inconclusive = small, poorly fitted or top-dose-only effect, or another doubt; inactive = no such curve, though single readings can be large; an effect the other way counts as inactive or inconclusive.
no.	canonical_smiles	TSG101-PTAP inh	GRP78 ERSR act	miR-21 reporter
1	CC(=O)N1c2ccc(S(=O)(=O)NCC3CCC(C(=O)Nc4cccc(C)c4)CC3)cc2CC1C (stereo not given)	.	0.1%	12.8%
2	CC(=O)N1c2ccc(S(=O)(=O)NCC3CCC(C(=O)NC4CCC(C)CC4)CC3)cc2CC1C (stereo not given)	-0.2%	-2.8%	13.8%
3	CCc1cccc(NC(=O)C2CCC(CNS(=O)(=O)c3ccc4c(c3)CCCC(=O)N4)CC2)c1 (stereo not given)	.	-2.6%	22.4%
4	CC(C)c1ccc(Cn2cnc3c(cnn3C(C)(C)C)c2=O)cc1	.	-2.4%	.
5	Cc1cccnc1-c1cccc2c1OC(CNC(=O)Cc1c(C)noc1C)C2 (stereo not given)	.	-5.0%	.
6	COCCCn1c(C)nc2c(c1=O)c1nc3ccccc3nc1n2CCc1ccccc1	-3.4%	1.6%	-11.9%
7	Cc1nc2ccccc2c(=O)n1CCc1ccccc1	-5.0%	2.8%	-15.6%
8	O=C(/C=C/c1ccc(-c2ccccc2[N+](=O)[O-])o1)c1ccco1	-1.4%	9.9%	-15.4%
9	COc1ccc(OCc2nnc(SCC(=O)N3CCCc4ccccc43)n2-c2ccc(C)cc2)cc1	-4.1%	3.1%	3.8%
10	Cc1ccc(OCc2nnc(SCc3ccc(C#N)cc3)n2-c2ccc(C)cc2)cc1	-3.5%	-1.2%	3.5%

no.	A549 tox	Nrf2 ARE act	Nrf2 inh
1	-1.6%	6.2%	?
2	3.4%	-0.5%	16.4µM*
3	-0.1%	9.9%	13µM*
4	.	.	.
5	.	.	.
6	-10.9%	-0.6%	8.2µM*
7	7.8%	9.4%	?
8	13.0%	10µM*	18.3%
9	?	1.9%	23.1µM*
10	?	5.3%	18.4µM*

# Next entries follow:
no.	canonical_smiles	TSG101-PTAP inh	GRP78 ERSR act	miR-21 reporter
11	N#Cc1ccc(OCc2nnc(SCC(=O)N3CCCc4ccccc43)n2-c2ccccc2)cc1	-7.2%	-0.8%	6.8%
12	COc1cc(C)c(CN2CCOc3ccc(C(O)c4cccnc4)cc3C2)cc1C (stereo not given)	.	-5.3%	.
13	Cc1cc(C)n2ncc(C(=O)NC(C)C)c2n1	.	.	.
14	O=C(Nc1cc2c(oc1=O)CCCC2=O)c1cccc(Cl)c1	-4.8%	-0.5%	-21.6%
15	COc1ccc(C(=O)Nc2cc3c(oc2=O)CCCC3=O)cc1	-1.4%	1.6%	-30.6%
16	O=C(Nc1ccc([N+](=O)[O-])cc1Cl)c1ccccc1O	.	-6.1%	.
17	CC(=O)Oc1c(C)cc(Cl)cc1C(=O)Nc1ccc([N+](=O)[O-])cc1Cl	-3.1%	-0.8%	9.8%
18	CC(=O)OCC(=O)Nc1ccc([N+](=O)[O-])cc1Cl	-0.8%	-0.2%	-5.6%
19	O=C1c2ccccc2C(=O)N1c1ccncc1	.	.	.
20	Cc1nc2sccn2c1CN1CCOc2ccc(CN3CCN(c4ccc(F)cc4)CC3)cc2C1	.	-2.8%	.

no.	A549 tox	Nrf2 ARE act	Nrf2 inh
11	0.4%	2.8%	-11.3%
12	.	.	.
13	11.7%	.	-4.3%
14	7.4%	11.2µM*	16.1%
15	0.1%	-0.2%	?
16	?	.	23.1µM*
17	2.59µM*	-1.1%	1.64µM*
18	-0.8%	-0.9%	-6.7%
19	-3.3%	.	7.5%
20	.	.	.

# The closing three entries of the part before lead into the next:
no.	canonical_smiles	TSG101-PTAP inh	GRP78 ERSR act	miR-21 reporter
18	CC(=O)OCC(=O)Nc1ccc([N+](=O)[O-])cc1Cl	-0.8%	-0.2%	-5.6%
19	O=C1c2ccccc2C(=O)N1c1ccncc1	.	.	.
20	Cc1nc2sccn2c1CN1CCOc2ccc(CN3CCN(c4ccc(F)cc4)CC3)cc2C1	.	-2.8%	.
21	OCC1(O)OC[C@@H](O)[C@H](O)[C@@H]1O (stereo not given in full)	.	-4.3%	.
22	CCCCCCC[n+]1c(/C=C/c2ccc(N(C)C)cc2)sc2ccccc21	.	-10.9%	.
23	COc1ccc(CN2CCOc3ccc(CN4CCC(Oc5cccnc5)CC4)cc3C2)cc1	.	-2.7%	.
24	Cc1ccc(NC(=O)c2ccc3c(c2)NC(=O)c2ccccc2S3)cc1	.	-4.4%	?
25	O=C(NCCCN1CCN(c2ccccc2F)CC1)c1nnc(Cc2ccc(Cl)cc2Cl)o1	.	-1.2%	20.6%
26	COc1ccc(Cc2nnc(C(=O)NCCCN3CCN(c4ccccc4F)CC3)o2)cc1OC	.	0.1%	?
27	CC1(C)CC(=O)c2cc(C(=O)Nc3ccccc3)c(=O)[nH]c2C1	.	-1.6%	.
28	CCn1c(-c2ccccc2F)nc2cc(NC(C)=O)cc(C(=O)N3CCC[C@H]3C(=O)OC)c21	.	-0.7%	.

no.	A549 tox	Nrf2 ARE act	Nrf2 inh
18	-0.8%	-0.9%	-6.7%
19	-3.3%	.	7.5%
20	.	.	.
21	.	.	.
22	.	.	.
23	.	.	.
24	?	4.4%	16.4µM*
25	-15.0%	3.9%	18.4µM*
26	-2.5%	3.6%	?
27	.	.	.
28	.	.	.
